Assay outcomes (PubChem)
In the library only some 1.6% were active in any assay of this set; here they are far more common.
ARNT-TACC3 inh = disruptors of human ARNT/TACC3 interaction. 0.66% of 390,000 active. Q9Y6A5. AID 623870. AlphaScreen His-ARNT PAS-B/GST-TACC3 binding, luminescence; TACC3 fragment carries E629A point mutation. inhibition, % at 9.99 µM;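 active means mean inhibition of replicates at least 50% and at least half of replicates each reaching 50%; inconclusive means half or more replicates reach 50% but mean below 50%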
CAL PDZ FP-1 = human CAL PDZ-peptide interaction inhibition | Q9HD26 | purified CAL PDZ, TMR-peptide fluorescence polarization, 1 h | inhibition, % at 20 µM | 0.02% of 330,000 active | AID 504414;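 active means highest replicate inhibition of at least 40%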
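Read-out basis: mP drop reported as inhibition | Assay system: Tagged CAL PDZ protein CerCALP, purified | Benchmarks: Unlabelled peptide for full inhibition, DMSO wells as neutral | Schedule: 1 h incubation at room temperature before polarization reading | Buffer or medium: Sodium phosphate/NaCl buffer pH 7.4 with TCEP, IgG, Thesit | Doses: Single point, 20 µM | Measured by: Fluorescence polarization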
UUG fidelity = modulators of yeast start codon fidelity, primary screen, whole organism, S. cerevisiae, single point, plate reader | activity score, % at 18.7 µM | 350,000 tested, 0.13% active | S. cerevisiae UUG-firefly luciferase reporter, luminescence/redox ratio;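 active means replicate mean at a twofold rise or more, about +100% in these data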;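 further: firefly luciferase made from a UUG start codon reports start codon fidelity; reporter light over untreated wells divided by growth signal over untreated wells; some hits fall short of that in this replicate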
PglD DTNB = inhibitors of Campylobacter jejuni PglD acetyltransferase; purified PglD enzyme, DTNB colorimetric CoA detection; inhibition, % at 12.5 µM; 0.098% of 360,000 active; AID 602405; in the data active means inhibition above about 16%, passing the limit was not always enough; inconclusive means no clear call, values can overlap the other calls
Vif inh = HIV Vif inhibition; inhibition, % at 7.49 µM; HEK293T cells, Vif self-association by quenched fluorescence, imaging, 24 h; 0.35% of 340,000 active; in the data active means inhibition above about 50%, passing the limit was not always enough; inconclusive means no clear call, values can overlap the other calls; inactive means below about 31%
CAL PDZ FP-2 = inhibitors of human CAL PDZ peptide binding | purified CAL PDZ, TMR-peptide fluorescence polarization, 1 h | AID 602252 | inhibition, % at 24.9 µM | 0.92% of 300,000 active | Q9HD26;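 active means mean inhibition of at least 30% with at least half of replicates also reaching 30%; inconclusive means no clear call, values can overlap the other calls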
Hits are given with their value.

Cc1ccccc1N1C(=O)c2cccc3c(N(C)CCO)ccc(c23)C1=O was read as ARNT-TACC3 inh inactive, CAL PDZ FP-1 inactive, UUG fidelity inactive, PglD DTNB inactive, Vif inh inactive and CAL PDZ FP-2 inactive.
C=CCOc1ccc(C2C(C(=O)c3ccco3)=C(O)C(=O)N2CCCN(CC)CC)cc1 (stereo not drawn) was read as ARNT-TACC3 inh inactive, CAL PDZ FP-1 inactive, UUG fidelity inactive, PglD DTNB inactive, Vif inh inactive and CAL PDZ FP-2 inactive.
Screening CCN(CC)CCCN1C(=O)C(O)=C(C(=O)c2ccco2)C1c1ccc(OC(C)C)cc1 (stereo not drawn) returned ARNT-TACC3 inh inactive, CAL PDZ FP-1 inactive, UUG fidelity inactive, PglD DTNB inactive, Vif inh inactive and CAL PDZ FP-2 87.8.
`COc1ccc(/C=C/C(=O)c2cc(F)ccc2OC(=O)c2ccccc2OC)cc1OC` gave ARNT-TACC3 inh inactive, CAL PDZ FP-1 inactive, Vif inh 90.7 and CAL PDZ FP-2 inactive.
CCCCOc1ccccc1N1CCN(CCCN2C(=O)C3CCCN3C2=O)CC1 (stereo not drawn) was read as ARNT-TACC3 inh inactive, UUG fidelity inactive, PglD DTNB inactive, Vif inh inactive and CAL PDZ FP-2 32.5.
Screening COc1ccccc1N1CCN(CCCCN2C(=O)C3CCCCN3C2=O)CC1 (stereo not drawn) returned ARNT-TACC3 inh inactive, CAL PDZ FP-1 inactive, UUG fidelity inactive, PglD DTNB inactive, Vif inh inactive and CAL PDZ FP-2 inactive.
Cn1cc([N+](=O)[O-])c(C(=O)N(Cc2ccccc2)Cc2ccccc2)n1 was read as ARNT-TACC3 inh inactive, CAL PDZ FP-1 inactive, Vif inh inactive and CAL PDZ FP-2 inactive.
For Cn1cc([N+](=O)[O-])c(C(=O)NCc2ccccc2)n1 the results were ARNT-TACC3 inh inactive, CAL PDZ FP-1 inactive, Vif inh inactive and CAL PDZ FP-2 30.2.
Screening C[C@H]1CN([C@@H](C)CO)C(=O)c2cccc(NS(=O)(=O)c3ccccc3)c2O[C@@H]1CN(C)Cc1ccc(C(=O)O)cc1 returned ARNT-TACC3 inh inactive, UUG fidelity inactive and PglD DTNB inactive.
Screening O=C(C[C@H]1C[C@H]2c3cc(NC(=O)Nc4ccc(C(F)(F)F)cc4)ccc3O[C@H]2[C@H](CO)O1)NCC1CC1 returned ARNT-TACC3 inh inactive, UUG fidelity inactive and PglD DTNB inactive.
Screening COC(=O)CC/C(O)=C1\C(=O)CC(C)(C)CC1=NCc1nc2ccccc2[nH]1 returned ARNT-TACC3 inh inactive, CAL PDZ FP-1 inactive, UUG fidelity inactive, PglD DTNB inactive, Vif inh 77.2 and CAL PDZ FP-2 inactive.
Screening S=C(Nc1ccccc1Cl)NC1CCC(NC(=S)Nc2ccccc2Cl)CC1 (stereo not drawn) returned ARNT-TACC3 inh inactive, CAL PDZ FP-1 inactive, Vif inh inactive and CAL PDZ FP-2 31.3.
`N#C[C@H]1[C@H](c2ccccc2)[C@H](CO)N1S(=O)(=O)c1ccc(F)cc1` gave ARNT-TACC3 inh inactive and PglD DTNB inactive.
`CCNC(=S)NNC(=O)c1cccn(Cc2ccc(Cl)cc2)c1=O` gave ARNT-TACC3 inh 44.2, CAL PDZ FP-1 inactive, UUG fidelity inactive, PglD DTNB inactive, Vif inh inconclusive and CAL PDZ FP-2 inactive.
For CNC(=S)NNC(=O)c1cccn(Cc2cccc(C(F)(F)F)c2)c1=O the results were ARNT-TACC3 inh inactive, CAL PDZ FP-1 inactive, UUG fidelity inactive, PglD DTNB inactive, Vif inh inactive and CAL PDZ FP-2 inactive.
For CCC(=O)Nc1ccc2c(c1)C(=O)N(C)C[C@@H](OC)[C@@H](C)CN(C(=O)c1cnccn1)[C@H](C)CO2 the results were ARNT-TACC3 inh inactive, UUG fidelity inactive and PglD DTNB inactive.
CCn1nc(C(=O)Nc2cc(Cl)ccc2-n2cncn2)c2ccccc2c1=O was read as ARNT-TACC3 inh inactive, CAL PDZ FP-1 inactive, UUG fidelity inactive, PglD DTNB inactive, Vif inh inactive and CAL PDZ FP-2 57.6.
Screening O=C(Cn1nc(C(=O)O)c2ccccc2c1=O)Nc1cc(Cl)ccc1-n1cncn1 returned ARNT-TACC3 inh inactive, CAL PDZ FP-1 inactive, UUG fidelity inactive, PglD DTNB inactive, Vif inh inactive and CAL PDZ FP-2 inactive.
Screening Cc1ccc(S(=O)(=O)Nc2ccc3c(c2)C(=O)N([C@@H](C)CO)C[C@H](C)[C@H](CN(C)S(=O)(=O)c2ccc(F)cc2)OCCCC[C@@H](C)O3)cc1 returned ARNT-TACC3 inh inactive, UUG fidelity inactive and PglD DTNB inactive.
Screening CCc1ccc2[nH]c(=O)c(C3C(C#N)=C(N)Oc4c3ccc3cccnc43)cc2c1 (stereo not drawn) returned ARNT-TACC3 inh 47.7, CAL PDZ FP-1 inactive, UUG fidelity inactive, PglD DTNB inactive, Vif inh inactive and CAL PDZ FP-2 inactive.
For CCOc1cccc(C2C(C#N)=C(N)Oc3cc(C)[nH]c(=O)c32)c1OCC (stereo not drawn) the results were ARNT-TACC3 inh inactive, CAL PDZ FP-1 inactive, Vif inh inactive and CAL PDZ FP-2 inactive.
Screening CC(C)(C)c1ccc(/C=N/N2CCN(c3ccccn3)CC2)cc1 returned ARNT-TACC3 inh inactive, CAL PDZ FP-1 inactive, UUG fidelity inactive, PglD DTNB inactive, Vif inh inactive and CAL PDZ FP-2 53.5.
Oc1ccc(/C=N/N2CCN(c3ccccn3)CC2)cc1 was read as ARNT-TACC3 inh inactive, CAL PDZ FP-1 inactive, UUG fidelity inactive, PglD DTNB inactive, Vif inh inactive and CAL PDZ FP-2 inactive.
`COc1ccc(NC(=O)Nc2ccc3c(c2)C(=O)N([C@H](C)CO)C[C@H](C)[C@H](CN(C)S(=O)(=O)c2cccs2)O3)cc1` gave ARNT-TACC3 inh inactive, UUG fidelity inactive and PglD DTNB inactive.
Screening COc1cc(S(=O)(=O)Nc2ccc(C(=O)NCC(=O)O)cc2)ccc1NC(C)=O returned ARNT-TACC3 inh inactive, CAL PDZ FP-1 inactive, UUG fidelity inactive, PglD DTNB inactive, Vif inh inactive and CAL PDZ FP-2 68.4.
`COCC#Cc1cnc2c(c1)C(=O)N([C@@H](C)CO)C[C@H](C)[C@@H](CN(C)C(=O)C1CC1)O2` gave ARNT-TACC3 inh inactive, UUG fidelity inactive and PglD DTNB inactive.
Screening O=C(NCCc1ccccc1)C1CCC(CNS(=O)(=O)c2ccc(F)cc2)CC1 (stereo not drawn) returned ARNT-TACC3 inh inactive, CAL PDZ FP-1 inactive, UUG fidelity inactive, PglD DTNB inactive, Vif inh inactive and CAL PDZ FP-2 40.6.
O=C(NCCC1=CCCCC1)C1CCC(CNS(=O)(=O)c2ccccc2)CC1 (stereo not drawn) was read as ARNT-TACC3 inh inactive, CAL PDZ FP-1 inactive, Vif inh inactive and CAL PDZ FP-2 inactive.
`Cc1ccc(S(=O)(=O)NCC2CCC(C(=O)NCCCN3CCOCC3)CC2)cc1` (stereo not drawn) gave ARNT-TACC3 inh inactive, CAL PDZ FP-1 inactive, UUG fidelity inactive, PglD DTNB inactive, Vif inh inactive and CAL PDZ FP-2 38.9.
